{
  "source": "ChEMBL document CHEMBL1126972",
  "about": "“Synthesis of 2-imidazolidinylidenepropanedinitrile derivatives as stimulators of gastrointestinal motility” (J Med Chem, 1993)",
  "species_on_record": "Cavia porcellus",
  "assay": "In vitro gastrointestinal motility enhancing activity was determined by potentiating action on electrically evoked contraction of the isolated guinea pig ileum;No effect.",
  "type": "functional",
  "data": [
    {"smiles": "Oc1nc2ccccc2n1CCNCc1ccc(CN2CCCCC2)o1", "values": [
      {"measurement": "EC30", "value": "No effect"}
    ]}
  ]
}
